US9000185B2, “Cycloalkyl ether compounds and their use as BACE inhibitors” (AstraZeneca AB, priority 2012, dated 2015)

By UniProt entry, the sequences of proteins in these tests, tags left out. Residues count along the entry.
UniProt P56817, 22-460: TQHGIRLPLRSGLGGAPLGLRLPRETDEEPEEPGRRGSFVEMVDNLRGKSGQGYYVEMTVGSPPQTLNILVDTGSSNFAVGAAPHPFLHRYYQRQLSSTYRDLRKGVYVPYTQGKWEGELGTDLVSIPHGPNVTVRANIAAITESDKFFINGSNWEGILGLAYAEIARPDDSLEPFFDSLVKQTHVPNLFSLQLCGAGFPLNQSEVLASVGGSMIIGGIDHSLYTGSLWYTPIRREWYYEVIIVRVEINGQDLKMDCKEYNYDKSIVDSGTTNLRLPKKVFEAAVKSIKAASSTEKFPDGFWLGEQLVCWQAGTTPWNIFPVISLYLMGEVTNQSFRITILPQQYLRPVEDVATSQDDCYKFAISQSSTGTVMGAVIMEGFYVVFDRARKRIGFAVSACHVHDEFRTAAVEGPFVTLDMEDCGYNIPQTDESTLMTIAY

How the values were obtained:
[1] = target: T1, human β-Secretase (sBACE-Fc) (Homo sapiens (Human), UniProt P56817); test: Diluted TR-FRET assay; type: biochemical; details: diluted TR-FRET assay: 50 times less enzyme, 6.5 h reaction time at r.t.; read-out: IC50 in TR-FRET assay (IC50 from the diluted FRET assay)
Experimental: (§1) The cDNA for the soluble part of the human β-Secretase (AA 1-AA 460) was cloned using the ASP2-Fc10-1-IRES-GFP-neoK mammalian expression vector. The gene was fused to the Fc domain of IgG1 (affinity tag) and stably cloned into HEK 293 cells.
The enzyme (truncated form) was diluted to 6 μg/mL (stock 1.3 mg/mL) and the TruPoint BACE1 Substrate to 200 nM (stock 120 μM) in reaction buffer (NaAcetate, chaps, triton x-100, EDTA pH4.5). Enzyme and compound in dimethylsulphoxide (final DMSO concentration 5%) was mixed and pre-incubated for 10 minutes at RT. Substrate was then added and the reaction was incubated for 15 minutes at RT. The reaction was stopped with the addition of 0.35 vol Stop solution (NaAcetate, pH 9). The fluorescence of the product was measured on a Victor II plate reader with excitation wavelengths of 340-485 nm and emission wavelengths of 590-615 nm. The final concentration of the enzyme was 2.7 μg/ml; the final concentration of substrate was 100 nM (Km of ˜250 nM). The dimethylsulphoxide control, instead of test compound, defined the 100% activity level and 0% activity was defined by wells lacking enzyme (replaced with reaction buffer) or by a saturating dose of a known inhibitor, 2-amino-6-[3-β-methoxyphenyl)phenyl]-3,6-dimethyl-5H-pyrimidin-4-one. […]

[2] = target: T1, human β-Secretase (sBACE-Fc); test: TR-FRET assay; type: biochemical; details: standard TR-FRET assay, 15 minutes reaction at RT
Experimental: The β-secretase enzyme used in the TR-FRET is prepared as follows:
as §1
The enzyme (truncated form) was diluted to 6 μg/mL (stock 1.3 mg/mL) and the TruPoint BACE1 Substrate to 200 nM (stock 120 μM) in reaction buffer (NaAcetate, chaps, triton x-100, EDTA pH4.5). Enzyme and compound in dimethylsulphoxide (final DMSO concentration 5%) was mixed and pre-incubated for 10 minutes at RT. Substrate was then added and the reaction was incubated for 15 minutes at RT. The reaction was stopped with the addition of 0.35 vol Stop solution (NaAcetate, pH 9). The fluorescence of the product was measured on a Victor II plate reader with excitation wavelengths of 340-485 nm and emission wavelengths of 590-615 nm. The final concentration of the enzyme was 2.7 μg/ml; the final concentration of substrate was 100 nM (Km of ˜250 nM). The dimethylsulphoxide control, instead of test compound, defined the 100% activity level and 0% activity was defined by wells lacking enzyme (replaced with reaction buffer) or by a saturating dose of a known inhibitor, 2-amino-6-[3-β-methoxyphenyl)phenyl]-3,6-dimethyl-5H-pyrimidin-4-one.

Row | IC50 [1] | IC50 [2] | Compound
1 | 6.1 nM | – | CO[C@H]1CC[C@]2(CC1)Cc1ccc(OCC3CCC3)cc1C21N=C(C)C(N)=N1 (stereo partly drawn) [Example 6, (1r,4r)-6′-(Cyclobutylmethoxy)-4-methoxy-5″-methyl-3′H-dispiro[cyclohexane-1,2′-indene-1′,2″-imidazol]-4″-amine]
2 | – | > 4900 nM | CO[C@H]1CC[C@]2(CC1)Cc1ccc(OCC3CCC3)cc1[C@]21N=C(C)C(N)=N1 (single isomer, unassigned; isomer 2) [7, isomer 2]
3 | 4.5 nM | – | CO[C@H]1CC[C@]2(CC1)Cc1ccc(OCC3CCC3)cc1[C@@]21N=C(C)C(N)=N1 (single isomer, unassigned; isomer 1) [7, isomer 1]
